For this data set the following is noted: buffer; pH 7.4; 200.0 µM.

Converted amounts (≈) assume the structure as drawn.

The text below walks through data of PubChem BioAssay AID1996.

As usually defined, the kinetic solubility is the concentration staying in solution when a stock, usually in DMSO, is diluted into the medium. As to `COc1ccc(Cl)cc1NC(=O)c1cnccn1`, the solubility (kinetic) was 3.3 µg/mL (≈ 12.5 µM).
